Data as given in patent publication US8093380B2, “Compounds with the bicyclo[4.2.1]nonane system for the treatment of Flaviviridae infections” (Pharmasset, Inc., priority 2002, dated 2012).

Tested on: HCV replicon
Experiment: HCV replicon system in Huh7 cells (real-time RT-PCR of replicon RNA)
Type: cell-based
Details: positive control; concentration not given
Experimental: The HCV replicon system in Huh7 cells.
Huh7 cells harboring the HCV replicon were cultivated in DMEM medium (high glucose, no pyruvate), supplemented with 10% fetal bovine serum, 1× non-essential amino acids, Pen-Strep-Glu (100 units/liter, 100 microgram/liter, and 2.92 mg/liter, respectively), and G418 (500 to 1000 microgram/milliliter). Antiviral screening assays were also done in the same medium without G418 as follows. To keep the cells in the logarithmic growth phase, cells were seeded in 96-well plates at low density (for example, 1000 cells per well). The test compound was then added immediately after seeding the cells, and they were incubated for 3 to 7 days at 37° C. in an incubator. The medium was then removed, and the cells were prepared for total RNA extraction (replicon RNA+host RNA). Replicon RNA was then amplified in a real-time RT-PCR (Q-RT-PCR) protocol, and quantified.
The observed differences in quantification of replicon RNA are one way to express the antiviral potency of the test compound. […] This can be concluded because the measured threshold-cycle for HCV RT-PCR in both settings was approximately the same. In such experiments, a way to express the antiviral effectiveness of a compound is to subtract the average threshold RT-PCR cycle of the negative control (Ctnegative) from the threshold RT-PCR cycle of the test compound (Cttestcompound). […]

Substance: recombinant interferon alfa-2a: recombinant interferon alfa-2a (Roferon-A, Hoffmann-Roche, NJ, USA), positive control [reference compound]
- HCV ΔCt: 7
